In PubChem BioAssay AID2676 (National Center for Advancing Translational Sciences (NCATS), 2010):
The entries are a selection whose mix differs from that of the whole data set. Some salts and complexes are drawn in separate pieces, as the source files them; their charges need not balance. Active and inactive are the calls of the source. Calls follow the shape of the dose curve; as a rule, active = well fitted activation curve with a large enough effect; inconclusive = small, poorly fitted or top-dose-only effect; inactive = flat fitted curve, though single readings scatter.

The chains behind the UniProt entries cited, without tags or fusion partners.
UniProt Q9HBX9, whole entry: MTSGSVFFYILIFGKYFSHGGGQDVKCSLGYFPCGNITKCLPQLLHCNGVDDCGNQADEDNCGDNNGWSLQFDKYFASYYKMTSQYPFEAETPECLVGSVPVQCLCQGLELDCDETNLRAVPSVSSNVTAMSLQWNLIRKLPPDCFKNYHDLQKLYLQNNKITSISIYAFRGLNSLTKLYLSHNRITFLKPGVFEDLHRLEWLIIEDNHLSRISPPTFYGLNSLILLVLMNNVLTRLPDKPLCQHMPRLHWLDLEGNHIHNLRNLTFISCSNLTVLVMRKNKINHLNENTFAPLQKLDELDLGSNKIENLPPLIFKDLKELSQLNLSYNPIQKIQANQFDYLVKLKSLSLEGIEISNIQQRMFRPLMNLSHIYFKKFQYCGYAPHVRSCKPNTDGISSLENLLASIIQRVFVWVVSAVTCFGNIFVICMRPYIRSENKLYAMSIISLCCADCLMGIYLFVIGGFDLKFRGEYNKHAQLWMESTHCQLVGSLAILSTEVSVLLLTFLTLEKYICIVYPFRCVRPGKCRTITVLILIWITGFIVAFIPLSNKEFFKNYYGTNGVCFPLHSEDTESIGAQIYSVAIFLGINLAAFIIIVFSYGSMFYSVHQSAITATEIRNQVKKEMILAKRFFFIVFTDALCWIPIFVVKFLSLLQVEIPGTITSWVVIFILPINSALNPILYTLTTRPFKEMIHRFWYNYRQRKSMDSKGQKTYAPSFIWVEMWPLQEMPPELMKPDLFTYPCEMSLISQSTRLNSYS

These molecules were tested against Relaxin receptor 1 (Homo sapiens) (UniProt Q9HBX9) (assay: qHTS Assay for Agonists of the Relaxin Receptor RXFP1). Conditions: HEK293T-RXFP1 cAMP TR-FRET, 30 min, percent of porcine relaxin response, buffer zero; at 57.5 µM (top of the series).
Source text: NIH Chemical Genomics Center [NCGC] NIH Molecular Libraries Probe Production Centers Network [MLPCN] MLPCN Grant: R03 MH085705-01A1 Assay Submitter (PI): Alexander Agoulnik NCGC Assay Overview: The relaxin hormone is involved in the variety of biological functions in normal tissues and diseases. The role of relaxin is well-established in female reproduction and parturition, mammary gland and endometrial development, maintenance of myometrial quiescence during pregnancy. Relaxin signaling through its G protein-coupled receptor (GPCR) RXFP1 results in ECM remodeling through regulation of collagen deposition, cell invasiveness, proliferation and overall tissue homeostasis. […] Recombinant human relaxin (rhRlx) is currently being tested in clinical trials as a protective agent in congestive heart failure, in treating severe preeclampsia, and as an anti-fibrotic agent in systemic sclerosis. Upon relaxin binding RXFP1 activation leads to the activation of adenylate cyclase (AC) via Gs. cAMP will activate PKA, which phosphorylates many signaling proteins. Thus, detection of cAMP increase is an easy and reliable indication of relaxin receptor activation. To screen for agonists of the relaxin receptor, a HEK293T cell line stably transfected with RXFP1 was used. RXFP1 activation was assayed by changes in cAMP levels as detected with a time-resolved fluorescence energy transfer (TR-FRET) cAMP detection kit.
NCGC Assay Protocol Summary: This is a cell-based assay for cAMP second messenger response to screen for agonists of the RXFP1 receptor. The assay was conducted in the presence of a PDE4 inhibitor (Ro 20174). The cells were lysed and the cAMP levels were measured with a TR-FRET cAMP kit. Presence of cAMP in the cell lysate disrupts binding between the cryptate-labeled anti-cAMP and d2-labeled cAMP pair, leading to a decrease in the TR-FRET signal. Data were normalized to the controls for basal activity (buffer only) and 100% activity (29 nM porcine relaxin). The EC50 values were determined from concentration-response data modeled with the standard Hill equation 1536-well assay protocol for the HEK293 RXFP1 cAMP assay: (1) Add 3 ul HEK293 RXFP1 cell culture. 2000 cells/well in DMEM/F12, 10% FBS, 1x Pen/Strep (dispensed offline with MultiDrop Combi). (2) Incubate 16-24 hr at 37C, 5% CO2. (3) Add 1 ul 400uM Ro20174 in DPBS, 0.05% BSA, 0.005% Tween 20. (3) Add 23 nl compounds in DMSO solution. Final concentration was 0.5 - 58 uM. (4) Incubate 30 min at 37C, 5% CO2. (5) Add 1 ul cAMP-d2 in lysis buffer (HTRF cAMP HiRange kit, CisBio). (6) Add 1 ul anti-cAMP antibody-cryptate in lysis buffer (HTRF cAMP HiRange kit, CisBio). (7) Incubate 30 min at room temperature. (6) Detect the assay plate in a ViewLux plate reader (PerkinElmer) with Ex=320 nm, Em1=615 nm and Em2=665 nm. Keywords: relaxin, RXFP1, RXFP2, G-protein coupled receptor, cAMP, agonist, high throughput screening, MLSMR, MLSCN, NIH Roadmap, qHTS and NCGC
% is scaled to controls: 0 for no effect and ±100 for the full control effect.
Also: nearly all actives have a fitted effect of over 60% in size.

| Compound | activation |
| --- | --- |
| COc1cc(OC)c(C(=O)NCC2(N(C)C)CCCCC2)cc1OC | inactive: -0.0411% |
| CC(C)c1ccc(NC2CCN(C(=O)OC(C)(C)C)CC2)cc1 | inactive: 0.69% |
| CN(C)c1cccc(C(=O)NCC2(N3CCCCC3)CCCCC2)c1 | inactive: 0.86% |
| O=[N+]([O-])c1cc([N+](=O)[O-])c(OC2CCCCC2O)c([N+](=O)[O-])c1 (stereo not given) | inactive: 1.05% |
| COc1ccc(CN(CCCl)CCCl)cc1Cl | inactive: 0.249% |
| O=C(NCC1(N2CCOCC2)CCCCC1)c1ccccc1Br | inactive: -1.42% |
| CCCOc1ccc(C(=O)NCC2(N(C)C)CCCCC2)cc1OC | inactive: 4% |
| CCCCOc1ccccc1C(=O)NCC1(N2CCOCC2)CCCCC1 | inactive: -1.5% |
| O=C(OC1CN2CCC1CC2)c1ccc([N+](=O)[O-])cc1 (stereo not given) | inactive: 0.482% |
| COc1ccc2c(c1O)-c1c(O)c(OC)cc3c1[C@H](C2)[N+](C)(C)CC3.O=[N+]([O-])c1cc([N+](=O)[O-])c([O-])c([N+](=O)[O-])c1[O-] | inactive: -0.154% |
| O=C(NCC1(N2CCCCC2)CCCCC1)c1cncc(Br)c1 | inactive: 1.44% |
| N#CC1(Nc2ccccc2)CCN(CCc2ccccc2)CC1 | inactive: 0.455% |
| CCN1CCC(Nc2ccc(Cl)cc2)CC1 | inactive: -1.18% |
| CSc1ccc(C(=O)NCC2(N3CCOCC3)CCCCC2)cc1 | inactive: -0.471% |
| CCOc1ccc(C(=O)NCC2(N3CCOCC3)CCCCC2)cc1 | inactive: 0.122% |
| O=C(NCC1(N2CCCCC2)CCCCC1)c1cccc([N+](=O)[O-])c1 | inactive: 1.27% |
| O=C(NCC1(N2CCCCC2)CCCCC1)c1ccc(OC(F)F)cc1 | inactive: 4.27% |
| O=C(NCC1(N2CCOCC2)CCCCC1)c1cc(=O)[nH]c2ccccc12 | inactive: -0.701% |
| COc1cc(C(=O)NCC2(N3CCCCC3)CCCCC2)ccc1OC(F)F | inactive: 2.77% |
| CC(C)c1ccc(C(=O)NCC2(N3CCOCC3)CCCCC2)cc1 | inactive: 0.808% |
| COc1ccc(NC2CCN(C(=O)OC(C)(C)C)CC2)cc1 | inactive: 0.874% |
| CN1CCN(CCOC(=O)C(O)(c2ccccc2)c2ccccc2)CC1 | inactive: 4.37% |

| Compound | activation |
| --- | --- |
| O=[N+]([O-])c1cc([N+](=O)[O-])c(NCC2CCS(=O)(=O)C2)c([N+](=O)[O-])c1 (stereo not given) | inactive: 3.34% |
| O=C(NCC1(N2CCCCC2)CCCCC1)c1cccc(C(F)(F)F)c1 | inactive: 2.89% |
| CCCOc1cccc(C(=O)NCC2(N3CCOCC3)CCCCC2)c1 | inactive: 0.181% |
| COc1ccccc1C(=O)NCC1(N2CCOCC2)CCCCC1 | inactive: 1.71% |
| CCOC(=O)N1CCC(Nc2ccc(F)cc2)CC1 | inactive: -0.0102% |
| COc1ccc(NC2CCN(CCc3ccccc3)CC2)c(OC)c1 | inactive: -2.86% |
| CCCCOc1ccc(C(=O)NCC2(N3CCOCC3)CCCCC2)cc1 | inactive: 1.41% |
| O=C(NCC1(N2CCCCC2)CCCCC1)c1ccc(F)cc1 | inactive: -1.42% |
| O=C(NCC1(N2CCOCC2)CCCCC1)c1ccc(Cl)cc1 | inactive: -3.37% |
| CCOc1ccc(C)cc1CN(CCCl)CCCl | inactive: 0.112% |
| Cc1ccc(OCC(C)C)c(CN(CCCl)CCCl)c1 | inactive: 1.27% |
| CCOC(=O)N1CCC(Nc2cccc(C)c2)CC1 | inactive: 0.687% |
| COc1cc(C(=O)NCC2(N(C)C)CCCCC2)ccc1OC(F)F | inactive: 2.03% |
| CSc1ccccc1C(=O)NCC1(N2CCCCC2)CCCCC1 | inactive: -0.834% |
| CC(C)(C)OC(=O)N1CCC(N(C(=O)c2ccccc2)c2ccc(F)cc2)CC1 | inactive: -0.857% |
| COc1ccc(C(=O)NCC2(N3CCCCC3)CCCCC2)c(OC)c1OC | inactive: 1.33% |
| COc1ccc(C(=O)NCC2(N3CCCCC3)CCCCC2)cc1 | inactive: -0.93% |
| O=C(NCC1(N2CCCCC2)CCCCC1)c1cccs1 | inactive: -1.06% |
| O=C(NCC1(N2CCCCC2)CCCCC1)c1ccc(=O)[nH]c1 | inactive: 2.93% |
| COc1ccc(Cl)cc1C(=O)NCC1(N2CCOCC2)CCCCC1 | inactive: 0.387% |
| N#CC1(Nc2ccccc2)CCN(Cc2ccccc2)CC1 | inactive: 0.779% |
| O=C(NCC1(N2CCCCC2)CCCCC1)c1ccc(Cl)s1 | inactive: -0.0954% |

| Compound | activation |
| --- | --- |
| O=C(OC1CN2CCC1CC2)C1c2ccccc2Oc2ccccc21 (stereo not given) | inactive: 1.5% |
| CCOC(=O)N1CCC(Nc2ccc(OC)cc2)CC1 | inactive: -2.73% |
| Cc1cc(C)cc(N(C(=O)c2ccccc2)C2CCN(C(=O)OC(C)(C)C)CC2)c1 | inactive: 4.85% |
| O=C(NCC1(N2CCCCC2)CCCCC1)c1ccc(Cl)nc1 | inactive: -0.176% |
| O=C(NCC1(N2CCOCC2)CCCCC1)c1cc2ccccc2o1 | inactive: 0.455% |
| O=C(O)C1(Nc2ccccc2)CCN(Cc2ccccc2)CC1 | inactive: -0.708% |
| CC(C)(C)OC(=O)N1CCC(Nc2ccccc2)CC1 | inactive: 2.36% |
| CCCOc1ccc(C(=O)NCC2(N(C)C)CCCCC2)cc1 | inactive: 4.75% |
| CN1CCC(Nc2ccc(F)c(Cl)c2)CC1 | inactive: 3.67% |
| CCOc1ncccc1C(=O)NCC1(N2CCOCC2)CCCCC1 | inactive: 4% |
| CN1CCC(Nc2ccc(Cl)cc2)CC1 | inactive: 1.05% |
| CCCOc1ccc(C)cc1CN(CCCl)CCCl | inactive: -0.0919% |
| COc1cccc(C(=O)N(c2cc(C)cc(C)c2)C2CCN(C(=O)OC(C)(C)C)CC2)c1 | inactive: -1.82% |
| COc1cc(OC)cc(C(=O)NCC2(N3CCOCC3)CCCCC2)c1 | inactive: 1.2% |
| COc1cc(C(=O)NCC2(N3CCOCC3)CCCCC2)cc(OC)c1OC | inactive: 1% |
| CCC(CO)(C(=O)OC1CN2CCC1CC2)c1ccccc1 (stereo not given) | inactive: 2.78% |
| Fc1ccccc1NC1CCN(Cc2ccccc2)CC1 | inactive: 0.59% |
| Cc1ccc(C(=O)NCC2(N3CCCCC3)CCCCC2)o1 | inactive: -1.63% |
| CN(C)C1(CNC(=O)c2ccc(C(C)(C)C)cc2)CCCCC1 | inactive: 0.0483% |
| COc1cc(OC)cc(C(=O)NCC2(N3CCCCC3)CCCCC2)c1 | inactive: 5.84% |
| Cc1ccccc1C(=O)NCC1(N(C)C)CCCCC1 | inactive: -4.18% |
| CN(C)c1ccc(C(=O)NCC2(N3CCCCC3)CCCCC2)cc1 | inactive: -4.44% |

| Compound | activation |
| --- | --- |
| O=C(NCC1(N2CCCCC2)CCCCC1)c1ccco1 | inactive: -2.8% |
| CC(C)(C)c1ccc(C(=O)NCC2(N3CCOCC3)CCCCC2)cc1 | inactive: 0.0663% |
| CCN1CCC(Nc2cccc(F)c2)CC1 | inactive: -0.234% |
| CCOC(=O)C(CC)C1=NC(C)(C)Cc2ccccc21.O=[N+]([O-])c1cc([N+](=O)[O-])c(O)c([N+](=O)[O-])c1 (stereo not given) | inactive: 0.502% |
| O=C(NCC1(N2CCOCC2)CCCCC1)c1ccccc1[N+](=O)[O-] | inactive: -0.35% |
| N#Cc1ccc(C(=O)NCC2(N3CCCCC3)CCCCC2)cc1 | inactive: -0.291% |
| O=C(NCC1(N2CCOCC2)CCCCC1)c1ccc([N+](=O)[O-])cc1 | inactive: -2.1% |
| CC(C)(C)OC(=O)N1CCC(N(C(=O)c2ccccc2)c2ccc(Cl)cc2)CC1 | inactive: 0% |
| CN(C)C1(CNC(=O)c2cccc(C#N)c2)CCCCC1 | inactive: -2.3% |
| O=C(NCC1(N2CCOCC2)CCCCC1)c1ccccc1 | inactive: 1.83% |
| CCCN1CCC(Nc2cc(OC)cc(OC)c2)CC1 | inactive: 0.31% |
| c1ccc(CN2CCC(Nc3ccccc3)CC2)cc1 | inactive: -2.76% |
| COc1ccc(C(=O)NCC2(N3CCOCC3)CCCCC2)cc1OC | inactive: 1.08% |
| O=C(NCC1(N2CCOCC2)CCCCC1)c1cc(Br)ccc1Cl | inactive: -0.552% |
| O=C(O)c1cccc(Nc2c([N+](=O)[O-])cc([N+](=O)[O-])cc2[N+](=O)[O-])c1 | inactive: 1.25% |
| CCc1cc(C(=O)NCC2(N3CCCCC3)CCCCC2)sc1C | inactive: 1.14% |
| O=C(OC1CN2CCC1CC2)C1c2ccccc2C=Cc2ccccc21 (stereo not given) | inactive: 1.99% |
| CCOC(=O)N1CCC(Nc2ccc(C)cc2)CC1 | inactive: 3.11% |
| N/C(=N\O)c1c(N)no[n+]1[O-] | inactive: 0.195% |
